Measurements from patent US20130203959A1.

Target: GLP-1R
Assay: cell-based or functional assay

With “Exendin-4 (from UniProt P26349) (peptide)” the EC50 of intracellular cAMP production in BHK-GLP-1R cells was 0.017 nM.
